Paper PMC10540216, “Activity Guided Azide-methyllysine Photo-trapping for Substrate Profiling of Lysine Demethylases” (Journal of the American Chemical Society, 2023)
“Also recorded” adds a separate entry of the source.

How the values were obtained:
[1] = test system: KDM4A-I71AzF; assay: Photo-crosslinking with TAMRA peptides, in-gel fluorescence; assay type: binding, human; settings: 10 µM peptide, 20 µM protein, 365 nm UV, 30 minutes at 4 °C
Description: (dissolved in 50:50 0.1% TFA and acetonitrile) were combined on a MALDI plate. Samples were ionized using reflectron positive mode on Bruker Daltonics UltrafleXtreme MALDI TOF with detection carried out from 700-3500 m/z. Bruker Flex Analysis software was used to analyze the […]
9. Demethylase activity of AzF mutants on semi-synthetic histones
A demethylase activity assay was conducted to determine if KDM4A-I71AzF mutant was active towards semi-synthetic histones (H3KC4me3, H3KC9me3, H3KC36me3). The samples included 10 µM histone, 10 µM enzyme, 1 mM 2OG, 100 µM (NH4)2Fe(SO4)2, 2 mM L-ascorbic acid, 50 mM Tris pH 8.0 (degassed), 1 mM TCEP (freshly prepared) and 10% glycerol (v/v). The samples were incubated for 3 h at 37 °C and were then purified through a C-18 Sep-pak column (Waters, cat# WAT054955). The histones were concentrated by speed vacuum and analyzed for […]
10. Photo-crosslinking experiment with peptides and in-gel fluorescence For peptide photo-crosslinking experiments, 10 µM TAMRA-labeled H3K9me0 or H3K9me3 […]
peptide was mixed with 20 µM of wild type KDM4A or AzF variants in a buffer consisting of 2 […]
mM ascorbic acid, 50 mM tris pH 8.0, 50 μM Fe(NH4)2(SO4)2, 200 µM 2OG. Samples were […]
365nm 100% irradiated) for 30 minutes at 4 °C on ice. Negative controls were kept in dark on ice for the full 30 minutes. […]

[2] = test system: KDM4A-I71AzF; assay: CASI: photo-crosslinking with HEK293T cell extracts, StrepTactin enrichment and LC-MS/MS proteomics; assay type: binding, human; settings: sheet "Final results but with 0.01";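 further: lysates from HEK293T cells pretreated with a KDM4 inhibitor to raise proteome methylation, affinity-purified after ±UV, gel-resolved, trypsin-digested, with exclusive unique peptides per protein averaged per condition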

| Substance | crosslinking with KDM4A-I71AzF [1] | Fold change (+UV/-UV) [2] |
| --- | --- | --- |
| (5/6)-TA M R A-GGARTKQTARKSTGGKAPR [compound 7, TAMRA-labeled peptide carrying H3K9me0] | negligible crosslinking; also recorded: negligible compared to the TAMRA-H3K9me3 peptide | – |
| IF2B1_HUMAN | – | 0 |
